Cyclic peptide permeability, from CycPeptMPDB

Collected by the curators of CycPeptMPDB (Li et al. 2023) from Townsend et al. 2020, doi:10.26434/chemrxiv.13335941.v1.

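Lipid, pH, incubation time, direction and concentration are not recorded in the data file. Other peptides of the study may be missing here. Peptides that the database sets to -10, its floor, are left out.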

PAMPA measures passive passage through an artificial lipid membrane. P is given in units of 10^-6 cm/s (from log10 values with two decimals); larger means faster passage.

SMILES | PAMPA (10^-6 cm/s)
CC(C)C[C@@H]1NC(=O)[C@H](CC(C)C)N(C)C(=O)[C@@H](C)N(C)C(=O)[C@H]2CCCN2C(=O)[C@H](Cc2ccccc2)NC(=O)[C@@H](CC(C)C)NC(=O)[C@H]2CCCN2C1=O | 0.78
CC(C)C[C@@H]1C(=O)N2CCC[C@H]2C(=O)N(C)[C@H](CC(C)C)C(=O)N[C@@H](Cc2ccccc2)C(=O)N2CCC[C@@H]2C(=O)N(C)[C@@H](C)C(=O)N(C)[C@@H](CC(C)C)C(=O)N1C | 1.4
CCCN1CC(=O)N[C@@H](CC(C)C)C(=O)N(C)[C@H](CC(C)C)C(=O)N2CCC[C@@H]2C(=O)N[C@H](CC(C)C)C(=O)N[C@@H](Cc2ccccc2)C(=O)N2CCC[C@@H]2C1=O | 4.7
CCCN1CC(=O)N(C)[C@H](CC(C)C)C(=O)N[C@H](CC(C)C)C(=O)N2CCC[C@H]2C(=O)N(C)[C@H](CC(C)C)C(=O)N[C@@H](Cc2ccccc2)C(=O)N2CCC[C@H]2C1=O | 9.1
CC(C)C[C@@H]1NC(=O)[C@H]2CCCN2C(=O)CN(Cc2ccccc2)C(=O)[C@H](CC(C)C)NC(=O)[C@H](C)N(C)C(=O)[C@H]2CCCN2C(=O)[C@H](Cc2ccccc2)NC1=O | 0.39
CC(C)C[C@@H]1C(=O)N(Cc2ccccc2)CC(=O)N2CCC[C@H]2C(=O)N(C)[C@@H](CC(C)C)C(=O)N[C@@H](Cc2ccccc2)C(=O)N2CCC[C@@H]2C(=O)N(C)[C@@H](C)C(=O)N1C | 6.3
CC(C)C[C@@H]1NC(=O)[C@@H](CC(C)C)N(C)C(=O)C[C@H](Cc2ccccc2)NC(=O)[C@H](Cc2ccccc2)NC(=O)CN(Cc2ccccc2)C(=O)[C@@H]2CCCN2C1=O | 4.2
CC(C)C[C@H]1C(=O)N[C@@H](Cc2ccccc2)CC(=O)N2CCC[C@H]2C(=O)N(C)[C@@H](CC(C)C)C(=O)N[C@@H](Cc2ccccc2)C(=O)N2CCC[C@H]2C(=O)N(C)[C@H](C)C(=O)N1C | 3.6
CC(C)C[C@@H]1C(=O)N[C@@H](Cc2ccccc2)C(=O)N2CCC[C@@H]2C(=O)N[C@H](C)C(=O)N[C@H](CC(C)C)C(=O)N(Cc2ccccc2)CC(=O)N2CCC[C@@H]2C(=O)N1C | 0.95
CC(C)C[C@@H]1NC(=O)CN(Cc2ccccc2)C(=O)[C@@H](C)N(C)C(=O)[C@H]2CCCN2C(=O)[C@H](Cc2ccccc2)NC(=O)[C@H](CC(C)C)N(C)C(=O)[C@H]2CCCN2C1=O | 1.9
CC(C)C[C@@H]1C(=O)N2CCC[C@H]2C(=O)N(C)[C@H](CC(C)C)C(=O)N[C@@H](Cc2ccccc2)C(=O)N2CCC[C@H]2C(=O)N(C)[C@@H](C)C(=O)N(C)[C@H](CC(C)C)C(=O)N1C | 1.6
CC(C)C[C@@H]1NC(=O)[C@H]2CCCN2C(=O)C[C@H](Cc2ccccc2)NC(=O)[C@H](CC(C)C)N(C)C(=O)C[C@H](Cc2ccccc2)NC(=O)[C@@H]2CCCN2C(=O)[C@H](Cc2ccccc2)NC1=O | 3.2
CC(C)C[C@@H]1NC(=O)[C@H](C)N(C)C(=O)[C@H](Cc2ccccc2)NC(=O)CN(Cc2ccccc2)C(=O)[C@@H]2CCCN2C(=O)C[C@H](Cc2ccccc2)NC1=O | 1.8
CC(C)C[C@@H]1NC(=O)[C@H]2CCCN2C(=O)[C@H](CC(C)C)N(C)C(=O)[C@H](CC(C)C)NC(=O)[C@H](C)N(C)C(=O)[C@H](Cc2ccccc2)NC1=O | 9.1
CCCN1CC(=O)N(C)[C@@H](CC(C)C)C(=O)N(C)[C@H](CC(C)C)C(=O)N2CCC[C@H]2C(=O)N(C)[C@H](CC(C)C)C(=O)N[C@@H](Cc2ccccc2)C1=O | 17
CC(C)C[C@H]1C(=O)N2CCC[C@@H]2C(=O)N(C)[C@@H](CC(C)C)C(=O)N[C@@H](Cc2ccccc2)C(=O)N[C@@H](C)C(=O)N(Cc2ccccc2)CC(=O)N1C | 6.5
CC(C)C[C@@H]1C(=O)N2CCC[C@@H]2C(=O)N[C@H](CC(C)C)C(=O)N[C@@H](Cc2ccccc2)C(=O)N2CCC[C@@H]2C(=O)N[C@H](C)C(=O)N(C)[C@@H](CC(C)C)C(=O)N1C | 1
CC(C)C[C@@H]1NC(=O)[C@H]2CCCN2C(=O)[C@H](CC(C)C)N(C)C(=O)[C@@H](CC(C)C)N(C)C(=O)[C@H](C)N(C)C(=O)[C@H](Cc2ccccc2)NC1=O | 5.5